Target: Carbonic anhydrase 2 (Homo sapiens, UniProt P00918)
Experiment: Inhibition of human carbonic anhydrase 2 esterase activity by spectrophotometry

IC50: 1.16 mM
SMILES: CC(=O)Oc1ccccc1C(=O)O [ASPIRIN]

Source: ChEMBL document CHEMBL1152236 (Bioorg Med Chem, 2008)
